Laboratory results from patent publication US8501807B2, “Pentaerythritol derivatives” (priority 2004, dated 2013).

Test: Evaluation of moisture retaining ability in dry conditions (weight change, 18° C., RH 20%)
Type: physicochemical
Details: initial moisture content 60%, constant temperature and humidity chamber 18° C.
Procedure: Moisture retaining ability was evaluated and compared for the compounds obtained in the Examples.
Specifically, samples were prepared such that the moisture content of the compounds obtained in the Examples was 60%, and while the samples were kept in a constant temperature and humidity chamber (18° C., RH 20%), the weight change of the samples was observed over time, thereby enabling evaluation of the changes in moisture content.

**Q.** What does the source list for “pentaerythritol ethoxylate (15/4 EO/OH) glycolic ester ethoxylate stearyl ether (pentaerythritol ethoxylate (15/4 EO/OH) steareth-10 carboxylate) [Example 42]”?
**A.** moisture content of sample, 1 h (1 h): 57%; moisture content of sample, 2 h (2 h): 55%; moisture content of sample, 4 h (4 h): 48%; moisture content of sample, 6 h (6 h): 34%
